Source: EP4775575A1, “COMPOUND USED AS CDK4 KINASE INHIBITOR AND USE THEREOF” (TYK Medicines, Inc., priority 2023, dated 2025)

Protein sequences, listed by entry. Tags and fused reporters are not part of them. Lines headed by an entry give the natural chain unless they say otherwise; changes in a name come on top.
UniProt P11802: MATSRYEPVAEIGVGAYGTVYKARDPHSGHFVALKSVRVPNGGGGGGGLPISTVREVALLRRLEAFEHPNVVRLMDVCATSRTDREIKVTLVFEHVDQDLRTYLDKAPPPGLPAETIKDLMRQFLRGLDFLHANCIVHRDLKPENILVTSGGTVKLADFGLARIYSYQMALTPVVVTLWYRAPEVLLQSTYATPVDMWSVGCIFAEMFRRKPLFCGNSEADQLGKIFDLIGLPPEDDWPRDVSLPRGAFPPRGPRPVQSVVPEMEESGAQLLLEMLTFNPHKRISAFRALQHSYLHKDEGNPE

These compounds were tested against CDK4/CycD1 (Homo sapiens, UniProt P11802) (assay: Kinase activity assay (MSA, EZ Reader) against CDK4).
Work on `CN1CCn2c1nc1c(F)cc(-c3nc(N[C@@H]4CCOC[C@H]4O)ncc3Cl)cc12` [TB-45, (3S,4R)-4-((5-chloro-4-(8-fluoro-1-methyl-2,3-dihydro-1H-benzo[d]imidazo[1,2-a]imidazol-6-yl)pyrimidin-2-yl)amino)tetrahydro-2H-pyran-3-ol] yielded an IC50 of 9.44 nM.
With `CN1CCCn2c1nc1c(F)cc(-c3nc(NC4CCOCC4)ncc3Cl)cc12` [TB-132, 5-chloro-4-(9-fluoro-1-methyl-1,2,3,4-tetrahydrobenzo[4,5]imidazo[1,2-a]pyrimidin-7-yl)-N-(tetrahydro-2H-pyran-4-yl)pyrimidin-2-amine] the IC50 was 46.8 nM.
`CC1CCN(C)c2nc3c(F)cc(-c4nc(N[C@@H]5CCOC[C@H]5O)ncc4Cl)cc3n21` (mixture of isomers) [TB-44, (3S,4R)-4-((5-chloro-4-(9-fluoro-1,4-dimethyl-1,2,3,4-tetrahydrobenzo[4,5]imidazo[1,2-a]pyrimidin-7-yl)pyrimidin-2-yl)amino)tetrahydro-2H-pyran-3-ol] showed an IC50 of 2.93 nM.
`CN1CCn2c1nc1c(F)cc(-c3nc(NC4CCN(S(C)(=O)=O)CC4)ncc3Cl)cc12` [TB-52, 5-chloro-4-(8-fluoro-1-methyl-2,3-dihydro-1H-benzo[d]imidazo[1,2-a]imidazol-6-yl)-N-(1-(methylsulfonyl)piperidin-4-yl)pyrimidin-2-amine] gave an IC50 of 8.94 nM.
With `COCc1cc(Nc2ncc(Cl)c(-c3cc(F)c4nc5n(c4c3)CCCN5C)n2)ccn1` [TB-130, 5-chloro-4-(9-fluoro-1-methyl-1,2,3,4-tetrahydrobenzo[4,5]imidazo[1,2-a]pyrimidin-7-yl)-N-(2-(methoxymethyl)pyridin-4-yl)pyrimidin-2-amine] the IC50 was 28.6 nM.
In the case of `C[C@@H]1CCN(C)c2nc3c(F)cc(-c4nc(N[C@@H]5CCOC[C@H]5O)ncc4Cl)cc3n21` [TB-91, (3S,4R)-4-((5-chloro-4-((R)-9-fluoro-1,4-dimethyl-1,2,3,4-tetrahydrobenzo[4,5]imidazo[1,2-a]pyrimidin-7-yl)pyrimidin-2-yl)amino)tetrahydro-2H-pyran-3-ol], the IC50 is reported as 4.15 nM.
`CCS(=O)(=O)N1CCC(Nc2ncc(Cl)c(-c3cc(F)c4nc5n(c4c3)CCCN5C)n2)CC1` [TB-143, 5-chloro-N-(1-(ethylsulfonyl)piperidin-4-yl)-4-(9-fluoro-1-methyl-1,2,3,4-tetrahydrobenzo[4,5]imidazo[1,2-a]pyrimidin-7-yl)pyrimidin-2-amine] gave an IC50 of 7.9 nM.
In the case of `CN1CCCn2c1nc1c(F)cc(-c3nc(N[C@@H]4CCOC[C@H]4O)ncc3Cl)cc12` [TB-40], the IC50 is reported as 7.94 nM.
Compound `CN1CCCn2c1nc1c(F)cc(-c3nc(N[C@@H]4CCOC[C@H]4O)ncc3F)cc12` [TB-42, (3S,4R)-4-((5-fluoro-4-(9-fluoro-1-methyl-1,2,3,4-tetrahydrobenzo[4,5]imidazo[1,2-a]pyrimidin-7-yl)pyrimidin-2-yl)amino)tetrahydro-2H-pyran-3-ol] has an IC50 of 8.36 nM.
`CN1CCCn2c1nc1c(F)cc(-c3nc(Nc4ccncc4)ncc3Cl)cc12` [TB-90] was tested, and the IC50 was 12.7 nM.
`CN1CCCn2c1nc1c(F)cc(-c3nc(N[C@@H]4CCOC[C@H]4O)ncc3C(F)(F)F)cc12` [TB-41, (3S,4R)-4-((4-(9-fluoro-1-methyl-1,2,3,4-tetrahydrobenzo[4,5]imidazo[1,2-a]pyrimidin-7-yl)-5-(trifluoromethyl)pyrimidin-2-yl)amino)tetrahydro-2H-pyran-3-ol] showed an IC50 of 161 nM.
In the case of `COC(=O)N1CCC(Nc2ncc(Cl)c(-c3cc(F)c4nc5n(c4c3)CCCN5C)n2)CC1` [TB-93, methyl 4-((5-chloro-4-(9-fluoro-1-methyl-1,2,3,4-tetrahydrobenzo[4,5]imidazo[1,2-a]pyrimidin-7-yl)pyrimidin-2-yl)amino)piperidine-1-carboxylate], the IC50 is reported as 51.8 nM.
`CNS(=O)(=O)N1CCC(Nc2ncc(Cl)c(-c3cc(F)c4nc5n(c4c3)CCCN5C)n2)CC1` [TB-144, 4-((5-chloro-4-(9-fluoro-1-methyl-1,2,3,4-tetrahydrobenzo[4,5]imidazo[1,2-a]pyrimidin-7-yl)pyrimidin-2-yl)amino)-N-methylpiperidine-1-sulfonamide] showed an IC50 of 13.6 nM.
`CN1CCCn2c1nc1c(F)cc(-c3nc(NC4CCC(F)(F)CC4)ncc3Cl)cc12` [TB-95, 5-chloro-N-(4,4-difluorocyclohexyl)-4-(9-fluoro-1-methyl-1,2,3,4-tetrahydrobenzo[4,5]imidazo[1,2-a]pyrimidin-7-yl)pyrimidin-2-amine] gave an IC50 of 103 nM.
`C[C@H]1CCN(C)c2nc3c(F)cc(-c4nc(N[C@@H]5CCOC[C@H]5O)ncc4Cl)cc3n21` [TB-92, (3S,4R)-4-((5-chloro-4-((S)-9-fluoro-1,4-dimethyl-1,2,3,4-tetrahydrobenzo[4,5]imidazo[1,2-a]pyrimidin-7-yl)pyrimidin-2-yl)amino)tetrahydro-2H-pyran-3-ol] was tested, and the IC50 was 4.55 nM.
For `CN1C(=O)CCn2c1nc1c(F)cc(-c3nc(N[C@@H]4CCOC[C@H]4O)ncc3Cl)cc12` [TB-46, 7-(5-chloro-2-(((3S,4R)-3-hydroxytetra hydro-2H-pyran-4-yl)amino)pyrimidin-4-yl)-9-fluoro-1-methyl-3,4-dihydrobenzo[4,5]imidazo[1,2-a]pyrimidin-2(1H)-one], the IC50 was 15.3 nM.
